Assay results as given in ChEMBL document CHEMBL2424629, “Structure-based design, synthesis, and anticonvulsant activity of isatin-1-N-phenylacetamide derivatives” (Med Chem Res, 2013).

Organism: Mus musculus
Assay: Protective index, ratio of TD50 for BALB/c mouse by rotarod test to ED50 for BALB/c mouse by maximal electroshock seizure test
Format: functional

With `NC(=O)N1c2ccccc2C=Cc2ccccc21` [CARBAMAZEPINE] the “Ratio TD50/ED50” value was 8.1.
